# Sampled rows, rich in hits. Any-hit rate of the full collection: about 3.7%.
# miR-21 reporter = miR-21 reporter, rising signal | HeLa miR-21 FLuc reporter, luciferase, 48 h | Potency, µM (doses to about 38.3 µM), inactives show at the top dose reporter change, positive = more light | 340,000 tested, under 10 active | AID 2288; active = well fitted rising curve with a large enough effect; inconclusive = small, poorly fitted or top-dose-only effect; inactive = no such curve, though single readings can be large or run the other way;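 note: % of control where 0% means no effect; miR-21 action dims this reporter so a rising signal means less miR-21 action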
#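 HeLa miR-21-FLuc reporter line, endogenous miR-21; 2000 cells/well in DMEM/10% FBS; compound titration up to ~40uM final, 48 h, 37 degree Celsius; luciferase detection reagent, 15 min lysis, CCD luminescence.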
# Nrf2 ARE act = activators of Nrf2 (ARE) signaling. Potency, µM (series often up to 46.1 µM), inactives show top-dose activation, most hits filed as activators. AREc32 ARE-luciferase reporter (MCF7-derived line), luminescence, 24 h. 0.31% of 410,000 active; further: potency means the concentration at half of the fitted maximal effect; % of control where 0% means no effect; nearly all actives have a fitted effect of over 65% in size
#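 Steps: seed AREc32_Fluc cells (1000/well, 5% FBS OPTI-MEM); incubate overnight at 37 deg C; add 23 nL compound; incubate 24 hr; add Steady-Glo; hold 30 min RT; read luminescence.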
# TCR activator = T cell receptor activation; primary human leukocytes, anti-CD3, IL-2 HTRF, 48 h; Potency, µM (highest dose often 9.22 µM), inactives show top-dose activation of IL-2 secretion, actives largely listed as activators; 330,000 tested, under 10 active; AID 504894; further: % of control where 0% means no effect
#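 Readout: HTRF IL-2, Eu-cryptate/d2 antibody pair, 320nm excitation, 665nm emission. Stimulus: a-CD3 beads, no co-stimulation. Cells: primary human leukocytes. Exposure: 48 hr with compound.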
# Nrf2 inh = inhibitors of Nrf2 signaling; 2.1% of 360,000 active; A549 ARE-Fluc reporter, luciferase luminescence, 18-24 h; Potency, µM (titrated, usually from 46 µM), for the others: at the top dose activity change, negative = inhibition, hits mostly inhibitors; further: potency means the concentration at half of the fitted maximal effect; on the % scale 0 is the no-effect control and ±100 the full control effect; nearly all actives have a fitted effect of over 60% in size
#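 In this cell-based qHTS, ARE-driven firefly luciferase in A549 cells reports Nrf2 activity; the luminescent signal after BugLite lysis is the measured value, with a prior CellTiter-Fluor read for cell health.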
# ClpP mod = qHTS Assay for Activators of ClpP | 1.9% of 340,000 active | AID 651965, 2013 | ATP-dependent Clp protease proteolytic subunit (Bacillus subtilis (strain 168)), P80244 | Potency, µM (doses to about 57.5 µM), for the others: at the highest dose activity change, negative = active | purified B. subtilis ClpP, FRET peptide cleavage, 20 min; active means well fitted falling curve with a large enough effect; inconclusive means small, poorly fitted or top-dose-only effect; inactive means no such curve, though single readings can be large or run the other way; further: potency means the concentration at half of the fitted maximal effect; the source files actives as falling curves though it sought activators and does not explain the sign; nearly all actives have a fitted effect of over 65% in size
#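 Purified B. subtilis ClpP, 10 microg/mL final in Tris/HCl pH8 with KCl, BSA, glycerol and Tween-20, cleaved an Abz/nitrotyrosine-quenched decapeptide. Fluorescence (ex 320, em 430) was read at 0 and 20 min at room temperature. Delta was normalized to 5.8 microM ADEP and DMSO/no-enzyme controls.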
# A549 viability = counter-screen for Nrf2 inhibitors: cytotoxicity in A549 cells; A549 ARE-Fluc cells, CellTiter-Fluor viability, 18-24 h; AID 504648; 0.16% of 390,000 active; Potency, µM (top dose mostly 46 µM), without a hit: at the highest dose activity change, negative = cytotoxicity, actives largely listed as inhibitors; further: potency means the concentration at half of the fitted maximal effect; on the % scale 0 is the no-effect control and ±100 the full control effect
#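 A549 ARE_Fluc cells in 5% FBS OPTI-MEM were exposed to compounds in concentration-response for 18-24 h at 37 deg C. Viability was read by CellTiter-Fluor fluorescence (Ex 405/Em 525) after 30 min, before the luciferase read.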
# An asterisk follows results filed as active; ? = inconclusive; / = not tested or not shown; ! = not confirmed by another sample; [ ] = another dose, or the depositor's remark. Unless noted, the call rests on the fitted dose curve; in most records, active means well fitted curve in the direction sought with a large enough effect; inconclusive means small, poorly fitted or top-dose-only effect, or another doubt; inactive means no such curve, though single readings can be large; an effect the other way counts as inactive or inconclusive.
compound	TCR activator	Nrf2 inh	Nrf2 ARE act	A549 viability	ClpP mod	miR-21 reporter
CCCCC(NC(=O)CCc1c(C)c2cc3c4c(oc3c(C)c2oc1=O)CCCC4)C(=O)O (stereo unspecified)	-5%	?	-1%	4%	?	10%
CCOC(=O)C1=C(N)Oc2ccc3ccccc3c2C1c1ccc(O)cc1 (stereo unspecified)	-3%	-9%	14%	2%	-1%	-6%
O=C(Nc1ncnc2c1C(c1ccccc1)c1c(ccc3ccccc13)O2)c1ccccc1 (stereo unspecified)	-1%	?	8%	?	/	/
O=C(Cc1ccccc1)Nc1ncnc2c1C(c1ccccc1)c1c(ccc3ccccc13)O2 (stereo unspecified)	0%	5.2µM*	5%	?	/	/
CCOC(=O)CCC(=O)Nc1ncnc2c1C(c1ccccc1)c1c(ccc3ccccc13)O2 (stereo unspecified)	1%	6.5µM*!	0%	?	/	/
O=C(c1ccccc1O)N(Cc1cccs1)Cc1cccs1	/	?	/	3%	/	/
O=C(NCCCN1CCOCC1)c1cc(-c2ccc(F)cc2)nc2ccccc12	2%	18%	0%	-2%	5%	/
O=C(NCCN1CCOCC1)c1cc(-c2ccc(F)cc2)nc2ccccc12	1%	14%	2%	4%	25µM*	/
O=C(NCCCN1CCCC1=O)c1cc(-c2ccc(F)cc2)nc2ccccc12	5%	?	4%	3%	8.9µM*	/
CCOC(=O)c1cc(-c2ccccc2)nn1Cc1ccccc1	/	?	0%	9%	0%	-58%
CCOC(=O)C1=C(C)C(c2cccc(Oc3ccccc3)c2)NC(=S)N1 (stereo unspecified)	1%[46.1 µM]	?	5%	3%	/	29%
CCCC(=O)C1=C(O)C(c2cccc(Oc3ccccc3)c2)CCC1=O (stereo unspecified)	3%	18µM*	0%	?	-4%	20%
COc1ccc(-c2nn(-c3ccccc3)cc2/C=C/C(=O)OCC(=O)Nc2ccc(C#N)cc2)cc1	-1%[46.1 µM]	-20%	3%	-15%	28µM*	-9%
COc1ccc(-c2nn(-c3ccccc3)cc2/C=N/NC(=O)c2cccc(S(=O)(=O)Nc3ccccc3OC)c2)cc1	-4%[46.1 µM]	6%	4%	1%	18µM*	-39%
COc1ccc(-c2nn(-c3ccccc3)cc2/C=N/NC(=O)c2ccc(Br)o2)cc1	3%	?	4%	?	32µM*	-16%
COc1ccccc1NS(=O)(=O)c1cccc(C(=O)N/N=C/c2ccccc2OCC(=O)O)c1	0%	3%	0%	1%	/	-1%
COc1ccc(-c2nn(-c3ccccc3)cc2/C=C/C(=O)OCC(=O)Nc2cccc(C#N)c2)cc1	-28%[46.1 µM]	-24%	0%	0%	25%	-13%
COc1ccc(-c2nn(-c3ccccc3)cc2/C=N/NC(=O)c2ccc3c(c2)OCO3)cc1	/	/	/	/	/	-16%
O=C(N/N=C/c1cn(-c2cccs2)nc1-c1ccccc1)c1ccccc1Br	-2%[46.1 µM]	-3%	0%	0%	22µM*	-16%
O=C(Nc1cccc(C(F)(F)F)c1)c1ccc2sc([C@@H]3O[C@H](CO)[C@H](O)[C@H](O)[C@H]3O)nc2c1	/	/	-1%[9.22 µM]	/	-2%	/
COc1ccc(NS(=O)(=O)c2cccc3ccccc23)cc1	-1%	-28%	0%	-1%	0%	/
O=C(NCc1ccccc1)C1c2ccccc2OCC(=O)N1Cc1ccco1 (stereo unspecified)	/	/	-1%	/	-1%	/
CCOC(=O)Cc1cc(=O)n2[nH]c(-c3ccccc3)cc2n1	-8%[46.1 µM]	12%	2%	7%	28µM*	-15%
CCOC(=O)Cc1c(C)nc2cc(-c3ccc(C(C)(C)C)cc3)nn2c1C	/	3%	5%	-2%	4%	-14%
CCOC(=O)Cc1c(C)nc2c(-c3cccc(Br)c3)c[nH]n2c1=O	-5%	?	-1%	-24%	14µM*	?

# Entries from the list above with a furan ring, fused or not, in the order listed:
compound	TCR activator	Nrf2 inh	Nrf2 ARE act	A549 viability	ClpP mod	miR-21 reporter
CCCCC(NC(=O)CCc1c(C)c2cc3c4c(oc3c(C)c2oc1=O)CCCC4)C(=O)O (stereo unspecified)	-5%	?	-1%	4%	?	10%
COc1ccc(-c2nn(-c3ccccc3)cc2/C=N/NC(=O)c2ccc(Br)o2)cc1	3%	?	4%	?	32µM*	-16%
O=C(NCc1ccccc1)C1c2ccccc2OCC(=O)N1Cc1ccco1 (stereo unspecified)	/	/	-1%	/	-1%	/

# Compound activity deposited in PubChem by National Center for Advancing Translational Sciences (NCATS).
